Assay: HPLC-based glutathione (GSH) reactivity / chemical stability assay, 10 mM GSH with TCEP-HCl
Settings: 100 μM compound, 10 h timescale

With Cc1ccc(S(=O)(=O)OCC(=O)Nc2ccc(C(=O)O)c(O)c2)cc1 [S3I-201] the “reactivity with GSH” value was “rapidly degraded”.

— article PMC4991483 (Oncotarget, 2016)
